Data taken from PubChem BioAssay AID1620 (Sanford-Burnham Center for Chemical Genomics, 2009).
Active and inactive are the calls of the source.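 The calls were made as follows: active = toxicity graded low, moderate or high, meaning less radioactive sulfur built into protein than in solvent-only controls; inactive = the rest.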

System: HeLa, 35S-Met/Cys protein incorporation toxicity, 3 h
Test: 35S-Met/Cys incorporation reduction in HeLa – HeLa cells, cytotoxicity control for PMI inhibitor project, late-stage follow-up (AID 1620)

Q: For `CN(C)C(=O)c1cccc(-n2sc3ccccc3c2=O)c1`, which outcome is on record?
A: Its outcome is “inactive; no toxicity”.
